ChEMBL document CHEMBL1138538, “Design, synthesis, and evaluation of 10-N-substituted acridones as novel chemosensitizers in Plasmodium falciparum” (Antimicrob Agents Chemother, 2007)
pIC50: −log10 of the molar value.

The chains behind the UniProt entries cited, without tags or fusion partners.
UniProt Q01959, whole entry: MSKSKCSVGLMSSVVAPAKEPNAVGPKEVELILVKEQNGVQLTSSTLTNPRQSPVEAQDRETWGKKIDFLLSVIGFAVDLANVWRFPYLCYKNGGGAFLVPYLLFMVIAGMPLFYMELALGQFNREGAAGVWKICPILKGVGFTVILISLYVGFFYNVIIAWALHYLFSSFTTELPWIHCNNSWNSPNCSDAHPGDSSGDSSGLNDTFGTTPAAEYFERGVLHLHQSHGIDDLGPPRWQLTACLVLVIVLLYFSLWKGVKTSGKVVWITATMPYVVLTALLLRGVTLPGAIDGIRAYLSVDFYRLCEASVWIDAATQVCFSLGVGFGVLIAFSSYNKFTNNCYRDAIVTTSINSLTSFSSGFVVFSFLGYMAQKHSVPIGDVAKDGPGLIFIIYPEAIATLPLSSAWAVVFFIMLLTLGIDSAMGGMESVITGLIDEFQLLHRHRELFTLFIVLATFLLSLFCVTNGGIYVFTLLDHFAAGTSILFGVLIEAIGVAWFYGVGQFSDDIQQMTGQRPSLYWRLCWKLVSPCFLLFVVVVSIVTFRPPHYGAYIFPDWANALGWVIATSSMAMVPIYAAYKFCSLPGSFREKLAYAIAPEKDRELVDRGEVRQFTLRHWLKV

Target: Sodium-dependent dopamine transporter (Homo sapiens, UniProt Q01959)

- pIC50: 4.59
Structure (SMILES): CN(C)CCCN1c2ccccc2CCc2ccccc21 [IMIPRAMINE]
